Experimental data taken from ChEMBL document CHEMBL1275486, “Kinetic characterization of VIM-7, a divergent member of the VIM metallo-beta-lactamase family” (Antimicrob Agents Chemother, 2008).

How the values were obtained:
[1] = test system: C[C@@H](O)[C@H]1C(=O)N2C(C(=O)O)=C(SCCNC=N)C[C@H]12; assay: Ratio of Kcat to Km for Pseudomonas aeruginosa beta-lactamase VIM-2 by spectrophotometry; conditions: 81-11963
Outline: (§1)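 Recombinant enzyme was expressed in E. coli BL21(DE3) from pET-26b and purified from the periplasm to >99%, with concentration taken from A280. Hydrolysis was followed spectrophotometrically at 25°C in 50 mM sodium cacodylate pH 7.0 with 100 μM ZnCl2 and 0.1 mg/ml BSA. Km and kcat came from initial velocity versus substrate concentration. Some Km values were taken as competitive Ki against nitrocefin reporter.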

[2] = test system: C[C@@H](O)[C@H]1C(=O)N2C(C(=O)O)=C(SCCNC=N)C[C@H]12; assay: Activity of Pseudomonas aeruginosa beta-lactamase VIM-2 by spectrophotometry; conditions: 81-11963; outline: as §1

Question: For “Beta-lactamase VIM-2 (Pseudomonas aeruginosa) (from UniProt Q9K2N0)”, which kcat/Km [1] is on record?
Answer: 3.8e+06 M⁻¹ s⁻¹

Question: And the Km [2]?
Answer: 9 µM

Question: And the kcat [2]?
Answer: 34 s⁻¹
